Experimental findings from US9745328B2, “Flap modulators” (JANSSEN PHARMACEUTICA NV, priority 2013, dated 2017) are described below.

Chains of the proteins cited; added tags and fusions are not shown. Lines headed by an entry give the natural chain unless they say otherwise; changes in a name come on top.
UniProt P20292: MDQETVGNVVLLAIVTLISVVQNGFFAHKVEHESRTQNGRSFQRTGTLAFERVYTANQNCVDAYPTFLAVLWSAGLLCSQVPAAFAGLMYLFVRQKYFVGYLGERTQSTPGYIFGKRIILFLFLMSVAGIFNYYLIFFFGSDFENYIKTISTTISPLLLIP

Some results are limits rather than exact numbers.

This assay deals with human FLAP (Homo sapiens (Human), UniProt P20292). The assay can be described thus: FLAP binding assay (HTRF format). The conditions noted are these: read-out: FLAP Binding wild type HTRF Ki. On the procedure: The ability of the compounds of the present invention to treat a FLAP-mediated disease and/or disorder, or associated symptoms or complications thereof, was determined using the following procedures. Binding assay data represent the average value obtained from two different assay plates, with samples run in duplicate on each plate. Human whole blood assay data represent a single replicate on an assay plate using whole blood from at least one healthy donor.
Data are expressed as a HTRF ratio.

“Ethyl 2-[2′-(tert-butylsulfamoyl)-3- fluorobiphenyl-4-yl]imidazo[1,2- a]pyridine-5-carboxylate [Example 587]”: the Ki was over 10 µM.

“4-{[4′-(5-Aminopyrazin-2-yl)-3′- fluorobiphenyl-2- yl]carbonyl}piperazin-2-one [Example 519]”: the Ki was over 10 µM.
